Experimental data as given in paper PMC5701133, “Structural Mechanism of the Oxygenase JMJD6 Recognition by the Extraterminal (ET) Domain of BRD4” (Scientific Reports, 2017).

What was measured:
[1] = biological target: T1, BRD4 ET domain (Homo sapiens, UniProt O60885); conditions: ITC, NSD3 peptide; ref [33]; cited from earlier work
T1 construct: His-tag (cleaved yes); made in house; host or cells: Escherichia coli BL21-CodonPlus (pRIL)

[2] = system: BRD4 and H4ac interaction; experiment: Co-immunoprecipitation with added nucleic acid: BRD4 binding to H4ac; conditions: double-transfected HEK293T lysate, different amounts of ssRNA
[3] = system: full-length JMJD6; experiment: Differential scanning fluorimetry (thermal shift) of full-length JMJD6; format: binding
[4] = system: BRD4 and NSD3 interaction; experiment: Co-immunoprecipitation with added nucleic acid: BRD4 binding to NSD3; conditions: double-transfected HEK293T lysate, increasing ssRNA concentration
[5] = biological target: T1, BRD4 ET domain; experiment: Isothermal titration calorimetry (ITC) of the ET domain with peptides; format: binding; conditions: 20 °C

## EIKLKITKTIQN [NSD3 peptide, PDB ID 2NCZ]
[1]
  TΔS (entropy change): 8.0 kcal/mol
  ΔH (enthalpy change): 2.85 kcal/mol

## ssRNA: 5′-AUACGAUGCUUUACGGUGCUAUUUUGU-3′; 27 nt (RNA, backbone not given here)
[2]
  BRD4 binding to H4ac on addition of ssRNA (in words): remains unchanged
[3]; 1 μM ssRNA, 1 μM JMJD6, PBS pH 7.4, SYPRO Orange, mean, n = 3
  melting temperature Tm of JMJD6 with ssRNA: 40.1 °C
[3]; 1 μM ssRNA, 1 μM JMJD6, versus free JMJD6
  decrease in JMJD6 melting temperature: 7.9 °C
[4]
  BRD4 binding to NSD3 on addition of ssRNA (in words): appears to be weaker when ssRNA concentration increases

## KWTLERAKRKYRN [JMJD6 L90A]
[5]; PBS with 0.5 mM dithiothreitol pH 7.4, protein 0.5 mM in cell, peptide 7.5 mM in syringe, one set of sites
  ITC binding affinity (Kd): No Binding
[5]; PBS with 0.5 mM dithiothreitol pH 7.4, versus wild type JMJD6 peptide
  binding to the ET domain by ITC (in words): nearly abolish the binding to the ET domain

## ssDNA: 5′-TTTCTAGATCAGGAGCTGTCGGAAGCTATCC-3′; 31 nt (DNA, backbone not given here)
[3]; nucleic acid 1 μM, JMJD6 1 μM, PBS pH 7.4, with or without ET domain for dsRNA
  JMJD6 interaction by thermal shift (in words): does not bind
